Assay results reported in ChEMBL document CHEMBL4043287, “A Structure-Activity Relationship Study of Bitopic N6-Substituted Adenosine Derivatives as Biased Adenosine A1 Receptor Agonists” (J Med Chem, 2018).

Columns and labels:
Type in all cases: cell-based
[1] = species: Homo sapiens; assay: Selectivity index, ratio of EC50 for human A3AR expressed in FlpIn-CHO cells to EC50 for human A1AR expressed in FlpIn-CHO cells
[2] = species: Homo sapiens; assay: Selectivity index, ratio of EC50 for human A3AR expressed in FlpIn-CHO cells to EC50 for human A2BAR expressed in FlpIn-CHO cells
[3] = species: Homo sapiens; assay: Selectivity index, ratio of EC50 for human A1AR expressed in FlpIn-CHO cells to EC50 for human A2BAR expressed in FlpIn-CHO cells
[4] = species: Homo sapiens; assay: Selectivity index, ratio of EC50 for human A2AAR expressed in FlpIn-CHO cells to EC50 for human A2BAR expressed in FlpIn-CHO cells

SMILES	Ratio EC50 [1]	Ratio EC50 [2]	Ratio EC50 [3]	Ratio EC50 [4]
Nc1sc(-c2cccc(C(=O)NCCCCCCNc3ncnc4c3ncn4[C@@H]3O[C@H](CO)[C@@H](O)[C@H]3O)c2)c(-c2cccc(C(F)(F)F)c2)c1C(=O)c1ccccc1	10	–	–	–
Nc1sc(-c2ccc(C(=O)NCCCCCCNc3nc(Cl)nc4c3ncn4[C@@H]3O[C@H](CO)[C@@H](O)[C@H]3O)cc2)c(-c2cccc(C(F)(F)F)c2)c1C(=O)c1ccccc1	–	200	200	200
Nc1nc(NCCCCCCNC(=O)c2ccc(-c3sc(N)c(C(=O)c4ccccc4)c3-c3cccc(C(F)(F)F)c3)cc2)c2ncn([C@@H]3O[C@H](CO)[C@@H](O)[C@H]3O)c2n1	–	200	200	200
O=C(NCCCCCCNc1ncnc2c1ncn2[C@@H]1O[C@H](CO)[C@@H](O)[C@H]1O)c1cccc(-c2cccs2)c1	–	200	200	200
Nc1sc(-c2ccccc2C(=O)NCCCCCCNc2ncnc3c2ncn3[C@@H]2O[C@H](CO)[C@@H](O)[C@H]2O)c(-c2cccc(C(F)(F)F)c2)c1C(=O)c1ccccc1	100	–	–	–
